The experiment concerns the target T1, Polyunsaturated fatty acid 5-lipoxygenase (Rattus norvegicus, UniProt P12527).
T1 sequence (P12527 whole entry): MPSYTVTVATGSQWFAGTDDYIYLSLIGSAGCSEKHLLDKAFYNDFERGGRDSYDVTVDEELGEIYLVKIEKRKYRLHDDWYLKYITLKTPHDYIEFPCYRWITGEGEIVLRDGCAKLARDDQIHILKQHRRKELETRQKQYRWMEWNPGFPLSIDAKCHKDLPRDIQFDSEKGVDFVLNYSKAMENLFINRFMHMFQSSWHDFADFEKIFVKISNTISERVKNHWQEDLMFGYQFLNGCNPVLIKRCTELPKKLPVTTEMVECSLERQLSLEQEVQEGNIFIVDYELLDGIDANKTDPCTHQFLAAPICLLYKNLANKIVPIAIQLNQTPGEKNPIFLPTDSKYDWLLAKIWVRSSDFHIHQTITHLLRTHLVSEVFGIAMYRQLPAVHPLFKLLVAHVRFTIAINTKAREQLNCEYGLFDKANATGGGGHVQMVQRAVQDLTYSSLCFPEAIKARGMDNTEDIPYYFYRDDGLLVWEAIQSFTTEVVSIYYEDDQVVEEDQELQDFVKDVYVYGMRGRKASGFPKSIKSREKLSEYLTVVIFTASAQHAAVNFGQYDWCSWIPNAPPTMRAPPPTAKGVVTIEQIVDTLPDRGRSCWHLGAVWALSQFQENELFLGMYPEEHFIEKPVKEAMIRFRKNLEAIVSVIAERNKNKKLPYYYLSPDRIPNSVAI
Description: Tested for its inhibitory activity against 5-lipoxygenase.

The term IC50 denotes the concentration that inhibits the measured activity by half. A low value points to inhibition by little substance. In the case of `CCN(CC)CCCC(C)Nc1c2ccc(Cl)cc2nc2ccc(OC)cc12` (stereo unspecified) [QUINACRINE], the IC50 is 130 µM.

Source of the values: ChEMBL document CHEMBL1149986, “Topical antiinflammatory dehydroabietylamine derivatives. IV” (Bioorg Med Chem Lett, 1993).
